## Antibody variant affinities, Ab-95 light chain, assay 2

Data: MIT Lincoln Laboratory AlphaSeq set, Engelhart et al. 2022, doi:10.1038/s41597-022-01779-4, as distributed in FLAb.

Antigen: PDVDLGDISGINAS, a 14-residue peptide of the SARS-CoV-2 spike HR2 region.

Each scFv is VH, a (GGGGS)3 linker, VL, as in the parent Ab-95, and differs from it in the CDRs of the light chain only.
VH: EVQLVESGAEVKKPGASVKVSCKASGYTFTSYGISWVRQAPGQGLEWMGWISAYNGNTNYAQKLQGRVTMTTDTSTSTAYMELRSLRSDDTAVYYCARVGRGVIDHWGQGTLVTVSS
VL: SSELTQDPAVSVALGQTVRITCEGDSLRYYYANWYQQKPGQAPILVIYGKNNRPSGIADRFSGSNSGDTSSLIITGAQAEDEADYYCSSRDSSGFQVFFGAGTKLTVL

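The parent was found by panning a naive human phage display library on the peptide. The library (AAYL52) carries one to three amino acid substitutions per variant, with no insertions or deletions. AlphaSeq pools MATa yeast showing the antibodies with MATalpha yeast showing the peptide. The frequency of each diploid, read from paired DNA barcodes, reflects how well the two displayed proteins bind. A regression on co-assayed BCL2-family reference pairs converts the normalised counts of each replicate to an apparent Kd. Each pool was mated in three replicate cultures.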

Substitutions are numbered in sequence along the VL above, starting at 1 (not Kabat). Values are log10 of the apparent Kd in nM; lower means stronger binding. The mean shown is taken over the replicates in which the pair was detected. "n.d." means that the variant was in the library but no mating with the target was seen in that replicate; the authors take this as a sign of poor binding, and no number exists. For reference, the parent read 2.31 as the reference entry and 2.25 as a member of this library.

changes	log10 Kd, replicates	log10 Kd (nM), mean	empty controls
D25Y+D91Y+V97E	4.31 n.d. n.d.	4.31	1 of 9 (3.35)
S89I+S92H+S93N	2.52 2.29 2.21	2.34	0 of 9
N33K	n.d. n.d. n.d.	n.d.	0 of 9
Y29C+A32T+V97C	3.17 3.45 n.d.	3.31	2 of 9 (3.22)
G24D+D25P+Y30S	2.06 2.02 1.84	1.98	3 of 9 (4.41)
Y30N+G49C	2.63 2.53 2.36	2.51	4 of 9 (4.58)
N33A+K50D+R53L	n.d. n.d. n.d.	n.d.	3 of 9 (4.12)
L27T+S88A+V97S	3.02 4.13 4.03	3.73	3 of 9 (3.20)
L27A+R28L+G49H	5.09 n.d. n.d.	5.09	1 of 9 (4.61)
A32I+R53I+F95E	n.d. n.d. n.d.	n.d.	1 of 9 (4.55)
L27E+Q96G+F98S	3.71 n.d. n.d.	3.71	3 of 9 (3.62)
Q96C+V97R	1.93 2.09 1.98	2.00	4 of 9 (4.11)
G49K+R53K+G94V	n.d. 4.14 3.08	3.61	1 of 9 (4.78)
P54S+Q96C	4.53 3.68 4.30	4.17	5 of 9 (3.77)
G49R+N52F+D91Y	4.37 3.38 n.d.	3.87	5 of 9 (4.34)
K50M+F95A+V97E	2.04 1.96 2.08	2.02	4 of 9 (4.18)
S26H+A32C+P54N	4.40 n.d. 4.76	4.58	2 of 9 (4.05)
R28M+S93R+F95Y	3.65 3.18 2.57	3.13	1 of 9 (4.16)
N52Y+S55P+S93H	n.d. 4.11 4.56	4.33	2 of 9 (4.17)
Y30Q+G94V+Q96K	1.25 1.28 0.74	1.09	3 of 9 (4.38)
P54D+F95E+F98M	2.29 2.02 1.68	1.99	1 of 9 (4.30)
S26R+G49Y+F98S	3.57 n.d. n.d.	3.57	2 of 9 (4.28)
G24C+N51R+G94T	3.78 3.95 n.d.	3.86	2 of 9 (3.92)
L27A+Y29Q+N33A	4.08 n.d. n.d.	4.08	2 of 9 (3.92)
E23N+G49T+S89K	n.d. 4.59 n.d.	4.59	2 of 9 (3.93)
G24F+L27T+D91C	4.36 n.d. n.d.	4.36	1 of 9 (3.65)
N52F+S88P	3.48 3.51 n.d.	3.49	3 of 9 (4.36)
A32S	2.81 2.14 1.99	2.31	2 of 9 (3.70)
S26F+Y29T+F98G	2.63 2.93 2.62	2.73	2 of 9 (4.01)
G24E+S92I+S93G	n.d. n.d. 3.95	3.95	4 of 9 (4.08)
S26A+S93V+F98I	2.97 3.41 3.91	3.43	2 of 9 (3.48)
R53M+S55Y+S88C	5.09 n.d. n.d.	5.09	3 of 9 (4.08)
Y30H+N33L	4.96 n.d. n.d.	4.96	0 of 9
D25E+D91L+Q96L	3.36 n.d. 4.35	3.85	3 of 9 (4.32)
Y29N+S89C+Q96M	4.62 4.49 3.28	4.13	1 of 9 (4.26)
Y30H+N33H+Q96V	n.d. n.d. n.d.	n.d.	4 of 9 (3.73)
R28N+G49W+K50F	3.71 n.d. 3.48	3.59	4 of 9 (3.45)
S88V+S92K+F98E	1.85 1.94 1.53	1.78	3 of 9 (3.50)
Y30N+Y31H	0.85 1.01 0.54	0.80	1 of 9 (3.43)
G24H+Y31N+S93T	1.83 1.27 1.22	1.44	2 of 9 (3.68)
G24F+N52V+S93I	n.d. n.d. n.d.	n.d.	5 of 9 (3.76)
Y30R+D91E+F98V	n.d. n.d. n.d.	n.d.	2 of 9 (3.67)
S26T+Y31T+S55D	2.91 2.81 2.26	2.66	5 of 9 (3.70)
Y31D+G49Y+F98Q	3.95 3.79 4.72	4.15	7 of 9 (4.52)
L27N+S89L+G94R	n.d. n.d. 4.03	4.03	0 of 9

From the list, the first 5 with no signal in any replicate:

changes,"log10 Kd, replicates","log10 Kd (nM), mean",empty controls
N33K,n.d. n.d. n.d.,n.d.,0 of 9
N33A+K50D+R53L,n.d. n.d. n.d.,n.d.,3 of 9 (4.12)
A32I+R53I+F95E,n.d. n.d. n.d.,n.d.,1 of 9 (4.55)
Y30H+N33H+Q96V,n.d. n.d. n.d.,n.d.,4 of 9 (3.73)
G24F+N52V+S93I,n.d. n.d. n.d.,n.d.,5 of 9 (3.76)

Empty control strains, which show no peptide, gave a signal in 28% of pairings with library AAYL52; the median was 3.91 and 95% of these signals were weaker than 2.90. No background was subtracted. For each scFv, signals with the empty controls are counted beside the result, with their mean in brackets.